Read-outs that look alike come from different tables or passages of the source.
What was measured:
hIDE WT = hIDE WT (Homo sapiens, UniProt P14735); assay: Small molecule-enzyme mutant complementation study, wild type; assay type: biochemical
Description: (§1) Protease assays with fluorogenic peptide substrates. The proteases IDE42-1019, recombinant human IDE42-1019 (R&D Systems), neprilysin (R&D), and angiotensin-converting enzyme (R&D) were assayed using the fluorophore/quencher-tagged peptide substrate Mca-[…](Dnp)-OH (R&D) according to the manufacturer's instructions and recommended buffers. For IDE the recommended buffer is 50 mM Tris pH 7.5, 1 M NaCl. The enzyme mixtures (48 μL) were transferred to a 96-well plate and combined with 2 μL of inhibitor in DMSO solutions, in 3-fold dilution series. The mixtures were allowed to equilibrate for 10 min and the enzymatic reaction was started by addition of substrate peptide in assay buffer (50 μL), mixed, and monitored on a fluorescence plate reader (excitation at 320 nm, emission at 405 nm). Similarly, thimet oligopeptidase (R&D) and neurolysin (R&D) were assayed using substrate Mca-PLGPK(Dnp)-OH (R&D) according to the manufacturer's instructions and recommended buffers. Matrix metalloproteinase-1 (R&D) was activated and assayed according to the manufacturer's instructions with substrate Mca-KPLGL-Dpa-AR-NH2 (R&D). All assay data points were obtained in duplicate. Data for the Yonetani-Theorell double inhibition plot was generated using 1 μL of each inhibitor (6bK, and Ii1 or bacitracin) under otherwise identical conditions as above, at concentrations corresponding to ⅓×, 1×, 3× and 9× of respective IC50 values against hIDE (R&D).^54,55
Site-directed mutagenesis, expression, and purification of human IDE. […]
All PCR products were purified on microcentrifuge membrane columns (MinElute®, Qiagen) and quantified by UV absorbance (NanoDrop). […]
The plasmid was extracted using a microcentrifuge membrane column kit (Miniprep®, Qiagen), and the sequence of genes and vector junctions were confirmed by Sanger sequencing (Table 6). […] Expression of His6-tagged IDE proteins was induced when the culture measured OD600 ˜0.6 by addition of isopropyl-β-D-1-thiogalactopyranoside (IPTG) to 1 mM final concentration, incubated overnight at 37° C., followed by centrifugation at 10,000 g for 30 min at 4° C. […]

Chains of the proteins cited; added tags and fusions are not shown. Lines headed by an entry give the natural chain unless they say otherwise; changes in a name come on top. Residues count along the entry.
UniProt P14735, 42-1019 limits assumed: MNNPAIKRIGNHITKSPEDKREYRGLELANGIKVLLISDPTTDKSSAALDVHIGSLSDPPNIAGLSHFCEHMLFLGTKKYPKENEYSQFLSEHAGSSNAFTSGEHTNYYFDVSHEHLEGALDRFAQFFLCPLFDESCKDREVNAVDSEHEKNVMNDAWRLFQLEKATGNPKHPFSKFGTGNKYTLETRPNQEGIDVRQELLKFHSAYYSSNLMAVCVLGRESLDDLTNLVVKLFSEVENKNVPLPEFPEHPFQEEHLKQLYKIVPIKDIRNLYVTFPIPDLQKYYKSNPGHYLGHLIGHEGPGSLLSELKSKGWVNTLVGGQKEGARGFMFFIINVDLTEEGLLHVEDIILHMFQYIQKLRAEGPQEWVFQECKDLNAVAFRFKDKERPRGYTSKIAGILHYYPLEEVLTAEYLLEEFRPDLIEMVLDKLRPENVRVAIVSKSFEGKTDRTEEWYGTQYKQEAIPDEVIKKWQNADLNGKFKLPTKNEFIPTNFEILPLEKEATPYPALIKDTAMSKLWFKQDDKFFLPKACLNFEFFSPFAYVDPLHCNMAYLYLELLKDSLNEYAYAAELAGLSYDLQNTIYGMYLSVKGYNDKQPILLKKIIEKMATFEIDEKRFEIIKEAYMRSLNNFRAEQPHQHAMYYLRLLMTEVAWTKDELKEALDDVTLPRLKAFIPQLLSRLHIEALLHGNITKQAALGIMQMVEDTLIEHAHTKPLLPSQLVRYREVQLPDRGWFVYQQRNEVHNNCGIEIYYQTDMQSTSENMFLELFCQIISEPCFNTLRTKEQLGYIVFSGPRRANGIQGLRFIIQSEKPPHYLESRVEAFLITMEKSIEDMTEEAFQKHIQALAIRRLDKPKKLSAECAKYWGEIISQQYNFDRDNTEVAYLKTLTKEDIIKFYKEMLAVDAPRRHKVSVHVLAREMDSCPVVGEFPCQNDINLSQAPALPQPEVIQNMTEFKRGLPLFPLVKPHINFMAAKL
UniProt P14735, 42-1019 A479L limits assumed: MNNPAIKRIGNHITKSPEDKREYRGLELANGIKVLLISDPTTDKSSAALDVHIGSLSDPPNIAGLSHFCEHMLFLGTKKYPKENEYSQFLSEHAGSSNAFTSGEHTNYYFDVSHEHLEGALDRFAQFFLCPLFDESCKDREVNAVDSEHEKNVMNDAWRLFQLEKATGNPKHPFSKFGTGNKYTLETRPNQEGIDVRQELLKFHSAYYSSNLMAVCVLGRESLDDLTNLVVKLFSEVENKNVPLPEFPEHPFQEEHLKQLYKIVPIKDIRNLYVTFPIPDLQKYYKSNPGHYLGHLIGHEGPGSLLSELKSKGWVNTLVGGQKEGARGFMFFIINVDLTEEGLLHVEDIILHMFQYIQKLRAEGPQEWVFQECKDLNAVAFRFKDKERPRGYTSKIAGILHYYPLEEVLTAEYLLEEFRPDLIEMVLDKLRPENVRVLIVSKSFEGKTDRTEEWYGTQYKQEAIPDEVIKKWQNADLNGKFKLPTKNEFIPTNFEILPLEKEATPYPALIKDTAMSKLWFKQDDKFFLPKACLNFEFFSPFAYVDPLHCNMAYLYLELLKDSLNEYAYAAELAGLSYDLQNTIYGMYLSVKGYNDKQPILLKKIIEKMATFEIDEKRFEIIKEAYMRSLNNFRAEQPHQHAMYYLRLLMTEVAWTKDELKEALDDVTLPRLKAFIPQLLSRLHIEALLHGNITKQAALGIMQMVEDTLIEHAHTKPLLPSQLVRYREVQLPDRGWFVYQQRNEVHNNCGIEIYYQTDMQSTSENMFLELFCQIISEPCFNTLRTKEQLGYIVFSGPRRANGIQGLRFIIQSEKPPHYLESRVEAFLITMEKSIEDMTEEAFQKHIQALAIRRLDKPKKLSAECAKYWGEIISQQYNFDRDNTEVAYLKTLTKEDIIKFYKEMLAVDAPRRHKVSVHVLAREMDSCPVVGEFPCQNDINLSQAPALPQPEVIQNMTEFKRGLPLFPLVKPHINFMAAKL
UniProt P14735, 42-1019 A198Q limits assumed: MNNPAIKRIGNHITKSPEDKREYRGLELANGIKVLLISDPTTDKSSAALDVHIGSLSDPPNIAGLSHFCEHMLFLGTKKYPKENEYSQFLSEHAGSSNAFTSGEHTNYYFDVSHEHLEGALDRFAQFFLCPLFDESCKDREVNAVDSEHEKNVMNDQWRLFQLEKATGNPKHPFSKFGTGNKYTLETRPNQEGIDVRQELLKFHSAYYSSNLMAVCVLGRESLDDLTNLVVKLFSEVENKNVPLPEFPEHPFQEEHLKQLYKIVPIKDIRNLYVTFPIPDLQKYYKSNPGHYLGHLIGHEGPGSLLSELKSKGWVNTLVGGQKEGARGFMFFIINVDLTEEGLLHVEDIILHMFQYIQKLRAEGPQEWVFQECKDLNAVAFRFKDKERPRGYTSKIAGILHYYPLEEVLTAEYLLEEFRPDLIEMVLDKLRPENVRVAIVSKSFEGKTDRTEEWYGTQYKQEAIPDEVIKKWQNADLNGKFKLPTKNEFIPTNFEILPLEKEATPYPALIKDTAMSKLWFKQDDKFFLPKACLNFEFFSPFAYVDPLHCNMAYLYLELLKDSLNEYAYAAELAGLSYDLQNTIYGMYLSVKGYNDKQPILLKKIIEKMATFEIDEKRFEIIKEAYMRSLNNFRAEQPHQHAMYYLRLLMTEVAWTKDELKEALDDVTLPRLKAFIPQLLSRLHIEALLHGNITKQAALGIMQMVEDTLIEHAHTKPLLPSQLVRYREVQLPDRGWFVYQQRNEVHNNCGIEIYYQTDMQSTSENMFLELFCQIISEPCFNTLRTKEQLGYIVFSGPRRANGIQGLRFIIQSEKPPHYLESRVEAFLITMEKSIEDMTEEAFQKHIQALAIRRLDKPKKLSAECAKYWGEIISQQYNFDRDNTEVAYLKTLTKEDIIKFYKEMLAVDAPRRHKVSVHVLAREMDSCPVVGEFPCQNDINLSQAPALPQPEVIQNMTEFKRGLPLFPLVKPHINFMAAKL
UniProt P14735, 42-1019 A198T limits assumed: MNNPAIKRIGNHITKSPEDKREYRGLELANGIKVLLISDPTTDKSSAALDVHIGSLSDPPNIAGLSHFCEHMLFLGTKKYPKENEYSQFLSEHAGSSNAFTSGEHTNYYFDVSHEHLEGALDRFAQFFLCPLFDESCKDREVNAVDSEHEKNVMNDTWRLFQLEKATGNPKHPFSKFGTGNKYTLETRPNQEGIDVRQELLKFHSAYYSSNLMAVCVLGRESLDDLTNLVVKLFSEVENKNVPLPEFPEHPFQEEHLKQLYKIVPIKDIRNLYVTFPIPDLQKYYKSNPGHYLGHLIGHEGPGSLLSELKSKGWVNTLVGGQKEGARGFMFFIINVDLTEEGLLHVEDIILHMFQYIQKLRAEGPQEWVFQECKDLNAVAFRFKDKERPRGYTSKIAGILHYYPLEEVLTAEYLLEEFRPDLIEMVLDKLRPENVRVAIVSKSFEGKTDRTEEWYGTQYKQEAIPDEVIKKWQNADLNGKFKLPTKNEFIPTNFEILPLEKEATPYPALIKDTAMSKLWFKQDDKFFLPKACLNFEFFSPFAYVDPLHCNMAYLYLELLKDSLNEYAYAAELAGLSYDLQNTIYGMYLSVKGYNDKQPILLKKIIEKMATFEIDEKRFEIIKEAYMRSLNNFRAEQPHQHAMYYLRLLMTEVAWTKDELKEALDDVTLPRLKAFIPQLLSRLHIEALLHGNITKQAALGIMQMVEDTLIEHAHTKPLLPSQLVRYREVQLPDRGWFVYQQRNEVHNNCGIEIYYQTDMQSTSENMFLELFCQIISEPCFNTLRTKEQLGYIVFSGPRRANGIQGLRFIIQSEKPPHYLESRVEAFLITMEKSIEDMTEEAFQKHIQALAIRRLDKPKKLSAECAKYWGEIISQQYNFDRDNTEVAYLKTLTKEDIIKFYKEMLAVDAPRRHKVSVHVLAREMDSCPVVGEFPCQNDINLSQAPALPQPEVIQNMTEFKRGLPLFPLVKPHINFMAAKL
UniProt P14735, 42-1019 A198Y limits assumed: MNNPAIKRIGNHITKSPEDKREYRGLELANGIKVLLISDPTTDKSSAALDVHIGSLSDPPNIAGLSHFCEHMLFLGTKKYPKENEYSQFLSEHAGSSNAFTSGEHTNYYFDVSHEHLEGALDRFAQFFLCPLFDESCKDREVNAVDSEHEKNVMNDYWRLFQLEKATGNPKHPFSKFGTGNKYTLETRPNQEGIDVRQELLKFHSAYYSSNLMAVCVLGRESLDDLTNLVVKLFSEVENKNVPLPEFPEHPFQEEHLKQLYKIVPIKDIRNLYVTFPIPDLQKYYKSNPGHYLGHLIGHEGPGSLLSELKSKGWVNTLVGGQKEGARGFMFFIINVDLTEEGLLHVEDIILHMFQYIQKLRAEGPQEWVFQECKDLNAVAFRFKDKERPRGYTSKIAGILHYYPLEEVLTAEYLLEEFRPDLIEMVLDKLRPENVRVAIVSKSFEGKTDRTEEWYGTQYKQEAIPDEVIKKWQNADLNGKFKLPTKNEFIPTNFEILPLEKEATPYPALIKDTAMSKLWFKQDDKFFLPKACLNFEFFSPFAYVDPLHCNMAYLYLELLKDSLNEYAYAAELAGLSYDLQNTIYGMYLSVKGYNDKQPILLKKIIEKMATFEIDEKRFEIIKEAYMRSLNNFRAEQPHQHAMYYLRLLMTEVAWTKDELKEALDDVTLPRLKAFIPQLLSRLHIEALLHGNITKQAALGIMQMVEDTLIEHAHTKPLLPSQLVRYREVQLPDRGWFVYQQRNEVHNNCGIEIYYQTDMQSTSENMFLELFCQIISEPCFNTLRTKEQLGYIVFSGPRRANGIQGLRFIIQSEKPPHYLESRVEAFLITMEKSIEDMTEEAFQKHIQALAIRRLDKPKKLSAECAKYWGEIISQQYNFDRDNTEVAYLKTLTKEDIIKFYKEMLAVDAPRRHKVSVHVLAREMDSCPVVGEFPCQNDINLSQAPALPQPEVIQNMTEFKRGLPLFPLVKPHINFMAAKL
UniProt P14735, 42-1019 F202L limits assumed: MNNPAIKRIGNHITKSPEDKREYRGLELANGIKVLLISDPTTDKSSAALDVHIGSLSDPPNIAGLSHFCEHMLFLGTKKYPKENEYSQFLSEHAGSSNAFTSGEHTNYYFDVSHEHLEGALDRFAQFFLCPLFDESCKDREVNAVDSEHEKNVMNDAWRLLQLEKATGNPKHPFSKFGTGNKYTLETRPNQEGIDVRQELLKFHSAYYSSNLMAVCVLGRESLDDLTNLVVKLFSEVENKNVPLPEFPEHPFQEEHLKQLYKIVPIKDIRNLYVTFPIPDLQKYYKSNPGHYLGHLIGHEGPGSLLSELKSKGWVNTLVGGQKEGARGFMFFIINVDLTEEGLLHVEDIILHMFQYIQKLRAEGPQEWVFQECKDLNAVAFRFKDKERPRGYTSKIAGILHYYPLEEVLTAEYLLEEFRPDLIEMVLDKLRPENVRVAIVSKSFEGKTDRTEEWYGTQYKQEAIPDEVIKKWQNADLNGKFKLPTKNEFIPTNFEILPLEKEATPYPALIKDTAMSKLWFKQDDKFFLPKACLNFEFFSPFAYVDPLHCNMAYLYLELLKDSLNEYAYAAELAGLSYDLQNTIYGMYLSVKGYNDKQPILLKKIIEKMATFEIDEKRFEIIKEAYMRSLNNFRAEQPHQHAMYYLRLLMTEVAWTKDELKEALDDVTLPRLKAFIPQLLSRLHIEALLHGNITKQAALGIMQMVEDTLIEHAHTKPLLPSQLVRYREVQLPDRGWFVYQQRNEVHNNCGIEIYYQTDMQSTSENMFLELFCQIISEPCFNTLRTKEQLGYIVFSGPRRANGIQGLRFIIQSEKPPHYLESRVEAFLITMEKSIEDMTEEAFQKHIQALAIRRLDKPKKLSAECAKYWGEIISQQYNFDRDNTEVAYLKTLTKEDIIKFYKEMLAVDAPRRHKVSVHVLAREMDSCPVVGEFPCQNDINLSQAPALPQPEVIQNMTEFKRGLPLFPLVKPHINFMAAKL
UniProt Q9BYT8, 38-704 limits assumed: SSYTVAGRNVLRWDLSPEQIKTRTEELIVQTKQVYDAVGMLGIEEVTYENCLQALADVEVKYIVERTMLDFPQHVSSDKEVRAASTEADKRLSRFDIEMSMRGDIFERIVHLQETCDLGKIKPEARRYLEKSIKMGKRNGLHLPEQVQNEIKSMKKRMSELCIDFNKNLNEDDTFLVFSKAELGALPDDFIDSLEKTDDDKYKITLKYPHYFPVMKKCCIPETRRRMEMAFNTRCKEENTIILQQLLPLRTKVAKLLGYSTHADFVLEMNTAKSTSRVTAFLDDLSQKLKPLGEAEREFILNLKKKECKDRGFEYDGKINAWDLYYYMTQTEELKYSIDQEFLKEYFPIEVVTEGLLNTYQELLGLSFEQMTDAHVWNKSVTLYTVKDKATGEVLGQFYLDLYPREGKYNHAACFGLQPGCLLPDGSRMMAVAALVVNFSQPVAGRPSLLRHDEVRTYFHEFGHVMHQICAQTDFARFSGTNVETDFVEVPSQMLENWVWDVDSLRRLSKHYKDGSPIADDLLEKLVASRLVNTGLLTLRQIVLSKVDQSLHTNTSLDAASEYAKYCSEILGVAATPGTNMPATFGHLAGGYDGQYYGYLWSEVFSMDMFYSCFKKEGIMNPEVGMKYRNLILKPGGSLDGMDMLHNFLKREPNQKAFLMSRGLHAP

IDE = IDE (Homo sapiens, UniProt P14735); assay: Protease assay with fluorogenic peptide substrate Mca-[…](Dnp)-OH (IDE species not given); assay type: biochemical
Description: All data points and error bars represent mean±SEM. Significance tests were performed using two-tail Student's t-test, and significance levels shown in the figures are p<0.05 (*) or p<0.01 (**) versus the vehicle-only control group. The in vitro selection of the DNA-templated macrocycle libraryl^16,17 used 20 μg His6-tagged mouse IDE immobilized on cobalt magnetic beads (Dynabeads, Invitrogen). IDE proteolytic activity was assayed with fluorogenic peptide Mca-[…](Dnp)-OH (R&D). IDE inhibition was confirmed using an anti-insulin antibody time-resolved FRET assay (Cysbio), and using an LCMS assay for CGRP cleavage fragments CGRP1-17 and CGRP18-37 in plasma^18. […] Stable-isotope LCMS quantitation of 6bK in biological samples was performed by spiking heavy-labeled 6bK synthesized using ^13C6^15N2 lysine (Sigma-Aldrich). Protease assays with fluorogenic peptide substrates. The proteases IDE42-1019, recombinant human IDE42-1019 (R&D Systems), neprilysin (R&D), and angiotensin-converting enzyme (R&D) were assayed using the fluorophore/quencher-tagged peptide substrate Mca-[…](Dnp)-OH (R&D) according to the manufacturer's instructions and recommended buffers. […] The enzyme mixtures (48 μL) were transferred to a 96-well plate and combined with 2 μL of inhibitor in DMSO solutions, in 3-fold dilution series. […]

hIDE G362Q = hIDE G362Q (Homo sapiens, UniProt P14735, G362Q); assay: Small molecule-enzyme mutant complementation study; assay type: biochemical; details: G362Q vs hIDE WT, batch 3
Description: as §1
(§2) Site-directed mutagenesis, expression, and purification of human IDE. The reported N-His6-tagged human IDE42-1019 construct was introduced in the expression plasmid pTrcHis-A (Invitrogen) using primers for uracil-specific excision reactions (USER) by Taq (NEB) and Pfu polymerases (PfuTurbo CX®, Agilent). The IDE gene was amplified with the primers 5′-[…]-dU-[…] and 5′-[…] G-dU-[…] (underlined sequences represent overhangs, and italics highlight the PCR priming sequence). Similarly, the pTrcHis-A vector was amplified for USER cloning with the primers 5′-[…] TGA-dU-[…] CCC and 5′-[…]-dU-[…]. Mutant IDE constructs were generated by amplifying the full vector construct with USER cloning primers introducing a mutant overhang (Table 5).
(§3) All PCR products were purified on microcentrifuge membrane columns (MinElute®, Qiagen) and quantified by UV absorbance (NanoDrop). Each fragment (0.2 pmol) was combined in a 10 μL reaction mixture containing 20 units DpnI (NEB), 0.75 units of USER mix (Endonuclease VIII and Uracil-DNA Glycosylase, NEB), 20 mM Tris-acetate, 50 mM potassium acetate, 10 mM magnesium acetate, 1 mM dithiothreitol at pH 7.9 (1× NEBuffer 4). The reactions were incubated at 37° C. for 45 min, followed by heating to 80° C. and slow cooling to 30° C. (0.2° C./s). The hybridized constructs were directly used for heat-shock transformation of chemically competent NEB turbo E. coli cells according to the manufacturer's instructions. Transformants were selected on carbenicillin LB agar, and isolated colonies were cultured overnight in 2 mL LB.
(§4) The plasmid was extracted using a microcentrifuge membrane column kit (Miniprep®, Qiagen), and the sequence of genes and vector junctions were confirmed by Sanger sequencing (Table 6). The plasmid constructs were transformed by heat-shock into chemically-competent expression strain Rosetta 2 (DE3) pLysS E. coli cells (EMD Millipore), and selected on carbenicillin/chloramphenicol LB agar. Cells transformed with IDE pTrcHis A constructs were cultured overnight at 37° C. in 2 XYT media (31 g in 1 L) containing 100 μg/mL ampicillin and 34 μg/mL chloramphenicol. Expression of His6-tagged IDE proteins was induced when the culture measured OD600 ˜0.6 by addition of isopropyl-β-D-1-thiogalactopyranoside (IPTG) to 1 mM final concentration, incubated overnight at 37° C., followed by centrifugation at 10,000 g for 30 min at 4° C. […]

hIDE V360R = hIDE V360R (Homo sapiens, UniProt P14735, V360R); assay: Small molecule-enzyme mutant complementation study; assay type: biochemical; details: V360R vs hIDE WT, batch 3
Description: as §1, §2, §3, §4

hIDE W199Y = hIDE W199Y (Homo sapiens, UniProt P14735, W199Y); assay: Small molecule-enzyme mutant complementation study; assay type: biochemical; details: W199Y vs hIDE WT, batch 2
Description: as §1, §2, §3, §4

hIDE I374M = hIDE I374M (Homo sapiens, UniProt P14735, I374M); assay: Small molecule-enzyme mutant complementation study; assay type: biochemical; details: I374M vs hIDE WT, batch 1
Description: as §1, §2, §3, §4

hIDE Y314F = hIDE Y314F (Homo sapiens, UniProt P14735, Y314F); assay: Small molecule-enzyme mutant complementation study; assay type: biochemical; details: Y314F vs hIDE WT, batch 2
Description: as §1, §2, §3, §4

hIDE V360Q = hIDE V360Q (Homo sapiens, UniProt P14735, V360Q); assay: Small molecule-enzyme mutant complementation study; assay type: biochemical; details: V360Q vs hIDE WT, batch 1
Description: as §1, §2, §3, §4

hIDE A198Y = hIDE A198Y (Homo sapiens, UniProt P14735, A198Y); assay: Small molecule-enzyme mutant complementation study; assay type: biochemical; details: A198Y vs hIDE WT, batch 2
Description: as §1, §2, §3, §4

hIDE G361Q = hIDE G361Q (Homo sapiens, UniProt P14735, G361Q); assay: Small molecule-enzyme mutant complementation study; assay type: biochemical; details: G361Q vs hIDE WT, batch 3
Description: as §1, §2, §3, §4

hIDE F202L = hIDE F202L (Homo sapiens, UniProt P14735, F202L); assay: Small molecule-enzyme mutant complementation study; assay type: biochemical; details: F202L vs hIDE WT, batch 1
Description: as §1, §2, §3, §4

hIDE F202R = hIDE F202R (Homo sapiens, UniProt P14735, F202R); assay: Small molecule-enzyme mutant complementation study; assay type: biochemical; details: F202R vs hIDE WT, batch 2
Description: as §1, §2, §3, §4

hIDE A198Q = hIDE A198Q (Homo sapiens, UniProt P14735, A198Q); assay: Small molecule-enzyme mutant complementation study; assay type: biochemical; details: A198Q vs hIDE WT, batch 1
Description: as §1, §2, §3, §4

hIDE W199F = hIDE W199F (Homo sapiens, UniProt P14735, W199F); assay: Small molecule-enzyme mutant complementation study; assay type: biochemical; details: W199F vs hIDE WT, batch 2
Description: as §1, §2, §3, §4

hIDE A198T = hIDE A198T (Homo sapiens, UniProt P14735, A198T); assay: Small molecule-enzyme mutant complementation study; assay type: biochemical; details: A198T vs hIDE WT, batch 2
Description: as §1, §2, §3, §4

hIDE K364A = hIDE K364A (Homo sapiens, UniProt P14735, K364A); assay: Small molecule-enzyme mutant complementation study; assay type: biochemical; details: K364A vs hIDE WT, batch 2
Description: as §1, §2, §3, §4

hIDE I310R = hIDE I310R (Homo sapiens, UniProt P14735, I310R); assay: Small molecule-enzyme mutant complementation study; assay type: biochemical; details: I310R vs hIDE WT, batch 2
Description: as §1, §2, §3, §4

[1] = molecular target: matrix metalloprotease 1 (MMP1) (Homo sapiens, UniProt P03956); assay: Protease assay with substrate Mca-KPLGL-Dpa-AR-NH2
hIDE A479L = hIDE A479L (Homo sapiens, UniProt P14735, A479L)
neprilysin (NEP) = neprilysin (NEP) (Homo sapiens, UniProt P08473); assay: Protease assay with fluorogenic peptide substrate
[2] = molecular target: angiotensin converting-enzyme (ACE) (Homo sapiens, UniProt P12821); assay: Protease assay with fluorogenic peptide substrate
neurolysin (NLN) = neurolysin (NLN) (Homo sapiens, UniProt Q9BYT8); assay: Protease assay with substrate Mca-PLGPK(Dnp)-OH
[3] = molecular target: thimet oligopeptidase (THOP) (Homo sapiens, UniProt P52888); assay: Protease assay with substrate Mca-PLGPK(Dnp)-OH
[4] = test system: lean and DIO C57BL/6J mice; assay: Oral glucose tolerance test (OGTT); details: lean (80 mg/kg) and DIO (60 mg/kg) mice, single i.p. dose 30 min before glucose gavage 3.0 g/kg, vs vehicle; tested form: TFA salt
[5] = test system: lean and DIO C57BL/6J mice; assay: i.p. injected glucose tolerance test (IPGTT); details: tested form: TFA salt

## N=C(N)NCCC[C@H](NC(=O)C(CC(=O)NO)Cc1ccc2ccccc2c1)C(=O)N[C@@H](Cc1c[nH]c2ccccc12)C(=O)N[C@@H](CCC(=O)O)C(N)=O (stereo partly drawn)
hIDE WT; batch 1 (reference)
  IC50 shift: 1.0 fold
hIDE WT; batch 2 (reference)
  IC50 shift: 1.0 fold
hIDE WT; batch 3 (reference)
  IC50 shift: 1.0 fold
IDE
  IC50: 0.6 nM
hIDE G362Q
  IC50 shift: 0.6 fold
hIDE V360R
  IC50 shift: 0.9 fold
hIDE W199Y
  IC50 shift: 1.4 fold
hIDE I374M
  IC50 shift: 1.0 fold
hIDE Y314F
  IC50 shift: 1.0 fold
hIDE V360Q
  IC50 shift: 0.9 fold
hIDE A198Y
  IC50 shift: 1.1 fold
hIDE G361Q
  IC50 shift: 0.9 fold
hIDE F202L
  IC50 shift: 1.7 fold
hIDE F202R
  IC50 shift: 1.1 fold
hIDE A198Q
  IC50 shift: 1.0 fold
hIDE W199F
  IC50 shift: 1.8 fold
hIDE A198T
  IC50 shift: 1.0 fold
hIDE K364A
  IC50 shift: 1.0 fold
hIDE I310R
  IC50 shift: 1.9 fold
[1]
  inhibition: not
hIDE A479L
  IC50 shift: 0.9
Neprilysin (NEP)
  inhibition: not
[2]
  inhibition: not
Neurolysin (NLN)
  IC50: 185 nM
[3]
  IC50: 6 nM

## NC(=O)CC[C@@H]1NC(=O)/C=C/C(=O)N[C@H](C(N)=O)CCCCNC(=O)[C@@H](Cc2ccc(C(=O)c3ccccc3)cc2)NC(=O)[C@H](CC2CCCCC2)NC1=O
hIDE A479L
  IC50 shift: > 600

## NCCCC[C@H]1NC(=O)/C=C/C(=O)N[C@H](C(N)=O)CCCCNC(=O)[C@@H](Cc2ccc(C(=O)c3ccccc3)cc2)NC(=O)[C@@H](CC2CCCCC2)NC1=O
[4]
  oral glucose tolerance: similar
IDE; tested form: TFA salt
  IC50: > 100000 nM
[5]; DIO mice, 90 mg/kg
  IPGTT response at high dose: potential weak activity
[5]; lean and DIO mice, glucose 1.5 g/kg i.p., vs vehicle
  glucose tolerance after i.p. glucose injection: neither effect was observed

From patent publication US20160282364A1, “ASSAY FOR INSULIN-DEGRADING ENZYME (IDE) INHIBITORS” (PRESIDENT AND FELLOWS OF HARVARD COLLEGE, priority 2013, published 2016)
